Assay results published in ChEMBL document CHEMBL4138055, “Determination and reduction of translocator protein (TSPO) ligand rs6971 discrimination” (Medchemcomm, 2017).
pKi: −log10 of the molar value.

Sequences of proteins named here, by UniProt entry; tags and fusion partners are left off.
UniProt P30536, whole entry: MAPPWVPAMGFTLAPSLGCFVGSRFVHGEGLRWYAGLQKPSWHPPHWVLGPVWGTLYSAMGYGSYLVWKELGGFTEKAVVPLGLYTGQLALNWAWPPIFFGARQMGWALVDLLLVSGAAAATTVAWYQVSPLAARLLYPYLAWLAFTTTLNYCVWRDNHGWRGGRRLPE

Molecular target: Translocator protein (Homo sapiens, UniProt P30536)
Experiment: Displacement of [3H]PK11195 from human wild type TSPO expressed in HEK293T cell membranes after 90 mins by scintillation counting method

`CCC(C)N(C)C(=O)c1cc2ccccc2c(-c2ccccc2Cl)n1` (stereo unspecified) [PK-11195] gave a pKi of 7.53.
